assay: Binding affinity (Ki) was determined towards Opioid receptors by competition with [3H]diprenorphine in rat whole brain membrane preparation

| SMILES | Ki [nM] |
| --- | --- |
| CO[C@]12CC[C@@]3(C[C@@H]1C(C)(C)O)[C@H]1Cc4ccc(O)c5c4[C@@]3(CCN1C[C@@H](C)CF)[C@H]2O5 | 18.9 |
| CO[C@]12CC[C@@]3(C[C@@H]1C(C)(C)O)[C@H]1Cc4ccc(O)c5c4[C@@]3(CCN1C[C@H](C)CF)[C@H]2O5 | 10.8 |
| CO[C@]12CC[C@@]3(C[C@@H]1C(C)(C)O)[C@H]1Cc4ccc(O)c5c4[C@@]3(CCN1CCCCF)[C@H]2O5 | 10.7 |

Source: ChEMBL document CHEMBL1124775 (J Med Chem, 1990)
